Biological target: T1, PfDHODH (Plasmodium falciparum, UniProt Q08210)
T1 sequence (Q08210 1-569): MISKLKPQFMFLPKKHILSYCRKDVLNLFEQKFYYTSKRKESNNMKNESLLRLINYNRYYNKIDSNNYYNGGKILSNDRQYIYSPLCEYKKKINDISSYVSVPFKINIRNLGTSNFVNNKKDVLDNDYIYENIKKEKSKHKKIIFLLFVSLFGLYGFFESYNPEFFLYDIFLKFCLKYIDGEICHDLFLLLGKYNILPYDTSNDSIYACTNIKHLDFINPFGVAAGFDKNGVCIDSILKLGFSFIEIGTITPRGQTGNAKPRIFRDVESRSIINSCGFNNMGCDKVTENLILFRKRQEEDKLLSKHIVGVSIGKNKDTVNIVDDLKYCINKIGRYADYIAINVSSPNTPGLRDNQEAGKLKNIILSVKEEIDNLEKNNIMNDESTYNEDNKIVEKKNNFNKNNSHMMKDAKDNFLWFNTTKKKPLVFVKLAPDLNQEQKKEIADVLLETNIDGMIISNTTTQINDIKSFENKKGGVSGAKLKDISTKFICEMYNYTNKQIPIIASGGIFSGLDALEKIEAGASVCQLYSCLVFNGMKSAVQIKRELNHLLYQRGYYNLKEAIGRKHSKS
Assay: biochemical
Design: PfDHODH enzyme inhibition IC50
Conditions: read-out: >50

Q: Which IC50 does the source give for Cc1cc(Nc2ccc3ccccc3c2)n2ncnc2n1 [TCMDC-125840] here?
A: 5 nM

Source: PMC5084075 (ACS Central Science, 2016)
